Laboratory results: US20130184251A1, “HETEROAROMATIC AND AROMATIC PIPERAZINYL AZETIDINYL AMIDES AS MONOACYLGLYCEROL LIPASE INHIBITORS” (Janssen Pharmaceutica, NV, priority 2009, published 2013)

By UniProt entry, the sequences of proteins in these tests, tags left out.
UniProt Q99685, whole entry L169S/L176S: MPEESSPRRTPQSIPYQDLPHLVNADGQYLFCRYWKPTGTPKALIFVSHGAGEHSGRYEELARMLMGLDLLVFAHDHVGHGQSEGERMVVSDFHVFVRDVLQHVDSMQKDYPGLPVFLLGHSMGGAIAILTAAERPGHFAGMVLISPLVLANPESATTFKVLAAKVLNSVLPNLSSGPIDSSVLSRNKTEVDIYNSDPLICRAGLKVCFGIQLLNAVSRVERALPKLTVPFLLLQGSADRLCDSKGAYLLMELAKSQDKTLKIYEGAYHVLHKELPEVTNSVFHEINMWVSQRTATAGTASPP

How the values were obtained:
[1] = molecular target: T1, purified mutant MGL (mut-MGLL 11-313 L179S L186S) (Homo sapiens, UniProt Q99685, L169S/L176S); assay: MGL enzyme activity assay (mutant MGL); details: read-out: Ex. 3 (mutant) IC50, substrate 4MU-B
[2] = molecular target: T1, purified mutant MGL (mut-MGLL 11-313 L179S L186S); assay: MGL ThermoFluor assay; details: read-out: Ex. 4 Kd

Row | SMILES | IC50 [1] [µM] | Kd [2] [µM]
1 | N#Cc1ccc(N2CCN(C3CN(C(=O)c4ccc(-c5ccccc5)cc4)C3)CC2)nc1 | > 15.3 | > 19
2 | O=C(c1ccc(-c2ccccc2)cc1)N1CC(N2CCN(c3ccc(C(F)(F)F)cn3)CC2)C1 | > 15.3 | > 76.7
3 | C[C@H](C(=O)N1CC(N2CCN(c3ccccn3)CC2)C1)c1ccc(-c2ccccc2)c(F)c1 | > 15.3 | > 76.7
4 | Cc1cccnc1N1CCN(C2CN(C(=O)c3ccc(-c4ccccc4)cc3)C2)CC1 | 15.2 | 12.5
